Measured values reported in US20130040405A1, “METHODS FOR SENSITIVE AND RAPID DETECTION OF MOLECULES” (published 2013).
Some compounds may have been tested in ways that are not shown here.

Experiments:
[1] = system: anti-TNT monoclonal antibody (A1.1.1); assay: QCM-based antibody displacement assay with Langmuir model analysis; conditions: for Δfmax (maximum frequency change caused by antibody displacement) / KA (binding affinity constant): Langmuir model fit of QCM data, displacement from TNB; for KA (binding affinity constant): relative affinity for anti-TNT antibody; for normalized frequency change: TNT at limit of detection 0.1 ng/mL
[2] = system: anti-TNT monoclonal antibody (A1.1.1); assay: ELISA measurement of anti-TNT antibody displacement from TNB-ovalbumin by TNT and TNT analogs; conditions: displacement of antibody A1.1.1 from immobilized TNB-ovalbumin

Compound | Δfmax (maximum frequency change caused by antibody displacement) [1] | KA (binding affinity constant) [1] | frequency change Δf ([1]; QCM, compound at 10 μg/mL) | ΔD/Δf ratio ([1]; QCM, compound at 10 μg/mL) | Concentration upon 50% of antibody displacement [2] | normalized frequency change ([1]; QCM, PBS) | normalized frequency change ([1]; QCM, artificial seawater) | frequency change Δf ([1]; QCM, compound at 1 μg/mL) | ΔD/Δf ratio ([1]; QCM, compound at 1 μg/mL) | antibody displacement relative to DNT ([1]; QCM, compounds at 10 μg/mL, at equilibrium) | normalized frequency change ([1]; QCM, fertilizer solution)
O=[N+]([O-])c1cc([N+](=O)[O-])cc([N+](=O)[O-])c1 | 0.66 ± 0.04 | 1.44 ± 0.62 mL/µg | 28.85 Hz | 0.0111±0.0007 ×10^−6/Hz | 0.3 µg/mL | – | – | – | – | – | –
Cc1c([N+](=O)[O-])cc([N+](=O)[O-])cc1[N+](=O)[O-] | 0.73±0.05 | 5.09 ± 0.61 mL/µg | – | – | 0.025 µg/mL | 1.92±0.27 | 1.56±0.16 | 26.65 Hz | 0.0051±0.0011 ×10^−6/Hz | about 3 fold | 1.50±0.15
Cc1c([N+](=O)[O-])cccc1[N+](=O)[O-] | 0.24 ± 0.11 | 0.47 ± 0.14 mL/µg | – | – | >100 µg/mL | – | – | – | – | – | –
